Assay: Aqueous solubility of the salt crystals (shaking in water for 24 hours, LC analysis)
Description: Samples are filtered and diluted (in a mixture of acetonitrile/water (1/1)) for LC analysis. Solubilities are calculated with the use of a calibration line. Furthermore, the pH values of the filtrated solutions are determined using pH indication paper.

SMILES: CN1C(=O)c2c(nn(Cc3ccc(-c4cccc(F)n4)cc3)c2Nc2ccccc2)N2C1=N[C@@H]1CCC[C@@H]12.O=C(O)c1ccncc1 [Isonicotinate Salt 1]
- Appearance (appearance of the sample after shaking in water for 24 hours (Slurry or Clear)): Slurry
- Solubility (aqueous, shaking in water for 24 hours, filtered, LC analysis with calibration line): 7630 µg/mL
